The text below walks through data of PubChem BioAssay AID2557 (NMMLSC, 2010).

By UniProt entry, the sequences of proteins in these tests, tags left out.
UniProt P13612, whole entry, looked up: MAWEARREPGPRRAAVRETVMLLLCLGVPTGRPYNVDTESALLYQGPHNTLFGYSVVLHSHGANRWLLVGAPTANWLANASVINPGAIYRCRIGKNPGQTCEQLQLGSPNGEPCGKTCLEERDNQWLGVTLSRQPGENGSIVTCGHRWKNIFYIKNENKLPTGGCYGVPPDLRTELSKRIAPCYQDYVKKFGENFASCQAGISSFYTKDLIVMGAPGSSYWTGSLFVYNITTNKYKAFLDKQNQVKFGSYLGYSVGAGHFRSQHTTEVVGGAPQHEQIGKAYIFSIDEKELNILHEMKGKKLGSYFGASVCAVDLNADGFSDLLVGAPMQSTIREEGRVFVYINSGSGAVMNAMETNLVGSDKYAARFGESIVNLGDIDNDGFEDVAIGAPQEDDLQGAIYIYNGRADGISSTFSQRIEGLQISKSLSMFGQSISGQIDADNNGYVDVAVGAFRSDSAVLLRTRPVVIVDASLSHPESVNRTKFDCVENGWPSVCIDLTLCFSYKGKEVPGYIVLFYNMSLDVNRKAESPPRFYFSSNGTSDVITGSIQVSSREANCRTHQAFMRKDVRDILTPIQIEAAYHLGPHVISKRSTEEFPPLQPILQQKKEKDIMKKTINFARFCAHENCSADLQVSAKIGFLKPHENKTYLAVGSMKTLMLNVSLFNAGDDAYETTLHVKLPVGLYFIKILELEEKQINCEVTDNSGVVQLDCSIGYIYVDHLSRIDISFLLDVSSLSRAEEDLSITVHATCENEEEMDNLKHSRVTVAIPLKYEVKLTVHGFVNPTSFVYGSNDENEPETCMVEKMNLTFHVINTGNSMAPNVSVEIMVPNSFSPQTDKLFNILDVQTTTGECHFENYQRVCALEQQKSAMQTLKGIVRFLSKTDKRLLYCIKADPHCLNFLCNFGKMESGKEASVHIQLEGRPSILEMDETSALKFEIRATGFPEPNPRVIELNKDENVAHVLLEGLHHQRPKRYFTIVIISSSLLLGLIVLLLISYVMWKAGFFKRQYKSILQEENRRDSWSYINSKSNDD

This is a selection; strong and weak results do not stand in their true shares. Activity calls are given as the source filed them. No stated cut-off is given here; in the data, active means inhibition above about 50%; inactive means the rest.

This test concerns the target Integrin alpha-4 (Homo sapiens) (UniProt P13612). Kind of test: VLA-4 integrin binding inhibitors – MLPCN library, flow cytometry, VLA-4 expressing cells, VLA-4 allosteric modulator project, primary screen (AID 2557). Particulars: ligand binding flow cytometry, stronger effect = higher value, about 7 µM as worked out from the volumes in the protocol.
For the molecule `CN(C(=O)Cc1ccccc1)[C@@H]1CC[C@]2(CCCO2)C[C@H]1N1CCCC1`, the inhibition is inactive: 18.8%.

Take `CCOP1(=S)c2c(C)nn(CCC#N)c2N=C(c2ccc(F)cc2)N1C` (stereo not drawn): the inhibition is inactive: 3.44%. With `N#CCCN(C(=O)COC(=O)C(O)(c1ccccc1)c1ccccc1)c1ccc(F)cc1`, the inhibition is inactive: 4.28%.

In the case of `CS(=O)(=O)c1cc([N+](=O)[O-])c2no[n+]([O-])c2c1`, the inhibition was inactive: -1.69%. For the molecule `O=P(Nc1nccs1)(Oc1ccccc1)Oc1ccccc1`, the inhibition is inactive: 7.69%. Take `O=P(Nc1nccs1)(c1ccccc1)c1nc2ccccc2s1` (stereo not drawn): the inhibition is inactive: 3.31%.

For `CCOP1(=S)c2c(C)nn(CCC#N)c2N=C(c2ccccc2F)N1C` (stereo not drawn), the inhibition was inactive: 3.65%. The value for `O=C(O)COc1ccc([As](=O)(O)O)cc1[N+](=O)[O-]` was inactive: 6.28%; that for `Nc1ccccc1[As](=O)(O)c1ccccc1` was inactive: -17.7%.

`CCCOP(=S)(Nc1nc(N)cc(=O)[nH]1)OCCC`: the inhibition is inactive: -11.6%. With `Nc1cccc2c([As](=O)(O)O)cccc12`, the inhibition is inactive: -12.6%. The value for `Cc1ccc(NCCc2c([N+](=O)[O-])cc([N+](=O)[O-])cc2[N+](=O)[O-])cc1` was inactive: 0%. In the case of `CCOP(=O)(Nc1cccc2ccccc12)OCC`, the inhibition is inactive: 0.3%. With `COc1cc(C2NCCC3(OCCO3)C2(C)C)cc(OC)c1OC` (stereo not drawn), the inhibition is inactive: 3.04%. Turning to `CS(=O)(=O)c1ccc(Cl)c(NC(=O)COC(=O)C(O)(c2ccccc2)c2ccccc2)c1`, the inhibition is inactive: -1.87%. The value for `O=[As](O)(O)c1cccnc1` was inactive: -2.16%. The value for `COc1cc(C(=O)NCC2(N3CCOCC3)CCCCC2)cc(Cl)c1OC(C)C` was inactive: 5.01%; that for `O=C(OC1CN2CCC1CC2)c1ccc(Cl)cc1` (stereo not drawn) was inactive: 3.36%. The value for `Cc1cccc(OCC(=O)OC2CN3CCC2CC3)c1` (stereo not drawn) was inactive: -1.37%; that for `O=[As](O)(c1cccc(O)c1)c1cccc(O)c1` was inactive: -3.86%.

Turning to `COc1ccc(N/C(=N/P(=O)(N2CCOCC2)N2CCOCC2)N2CCOCC2)cc1`, the inhibition is inactive: 3.97%.

Regarding `Cc1cc(=O)[nH]c(N[N+](=O)[O-])n1`, the inhibition was inactive: 6.78%. The value for `O=C(OC1CN2CCC1CC2)C12CC3CC(CC(C3)C1)C2` (stereo not drawn) was inactive: -7.67%; that for `Cc1c2c(nc3ccccc13)SC(C(Cl)Cl)C2` (stereo not drawn) was inactive: 5.74%; that for `COc1cc(I)ccc1[As](=O)(O)O` was inactive: 6.82%. The value for `COc1ccc2nc(NP(=O)(c3ccccc3)c3ccccc3)sc2c1` was inactive: -0.67%; that for `CC(C)c1ccc(OP(=O)(Nc2ccccn2)Oc2ccccc2F)cc1` (stereo not drawn) was inactive: 17.8%. The value for `ClCCSc1nnc(-c2cccnc2)o1` was inactive: 0.72%.

In the case of `O=[N+]([O-])c1cc([N+](=O)[O-])c(-c2ccn[nH]2)s1`, the inhibition was inactive: -14.4%.

Consider `CC(C)NC(=O)NP(=O)(Oc1ccccc1)Oc1ccccc1`, for which the inhibition is inactive: 12.2%.

Take `CCN(CC)C(=S)SC(NC=O)C(Cl)(Cl)Cl` (stereo not drawn): the inhibition is inactive: 6.93%.

For `COc1cc(C(=O)NCC2(N3CCOCC3)CCCCC2)ccc1OCC(C)C`, the inhibition was inactive: 9.65%. For the molecule `O=[As](O)(c1ccc(O)cc1)c1ccccc1O`, the inhibition is inactive: -32.8%. In the case of `C[As](=O)(O)c1cccc(C(=O)O)c1`, the inhibition was inactive: -10.1%. Turning to `Cc1ccc2nc3c(c(C)c2c1)CC(C(Cl)Cl)S3` (stereo not drawn), the inhibition is inactive: 31.9%.

For `Cc1ccc(OP(=O)(Nc2ccc([N+](=O)[O-])cn2)Oc2ccc(C)cc2)cc1`, the inhibition is inactive: 6.01%.

In the case of `CCOC(=O)Nc1cccc([As](=O)(O)O)c1`, the inhibition was inactive: 5.24%. The value for `O=[N+]([O-])c1ccc(Nc2ccc(Oc3ccc([N+](=O)[O-])cc3[N+](=O)[O-])cc2)c([N+](=O)[O-])c1` was inactive: -6.29%; that for `Cc1cc(SC(NC=O)C(Cl)(Cl)Cl)ncn1` (stereo not drawn) was inactive: 9.29%; that for `O=P(Nc1ccccn1)(c1cccc2ccccc12)c1cccc2ccccc12` was inactive: 7.2%.

For `CCOC(=O)Nc1ccc([As](=O)(O)O)c(O)c1`, the inhibition is inactive: -0.95%. The value for `Cc1cc(SC(NC(=O)c2ccccc2)C(Cl)(Cl)Cl)nc(C(C)C)n1` (stereo not drawn) was inactive: -5.62%; that for `CCOC(=O)c1ccc(NC(=O)C(C)(CCl)SC)cc1` (stereo not drawn) was inactive: -1.74%; that for `O=C(OC1CN2CCC1CC2)c1cccc([N+](=O)[O-])c1` (stereo not drawn) was inactive: 11.9%. The value for `CCC(C)N(CC(C)C)C(=S)SC(NC(C)=O)C(Cl)(Cl)Cl` (stereo not drawn) was inactive: 6.88%; that for `COP1(=S)c2c(C)nn(CCC#N)c2N=C(c2ccc(F)cc2)N1C` (stereo not drawn) was inactive: -9.75%; that for `O=C(Nc1ccncc1[N+](=O)[O-])c1ccc([N+](=O)[O-])cc1[N+](=O)[O-]` was inactive: 34.7%. The value for `O=C(COc1ccccc1)OC1CN2CCC1CC2` (stereo not drawn) was inactive: -6.94%.
